Assays:
Assay in all cases: BLI
AMG655 = conditions: fit R^2 0.9870
Tiga = conditions: fit R^2 0.9770
KMTR2 = conditions: fit R^2 0.984

Question: How did the kon (AMG655) turn out when “WT DR5 recombinant protein (IgG4-Fc tagged extracellular domain of human DR5) (from UniProt O14763-1) E98A; M99A” was run?
Answer: The kon was 604000 M⁻¹ s⁻¹.

Question: What about the koff (Tiga) of the same substance?
Answer: The koff was 0.000226 s⁻¹.

Question: What about the koff (KMTR2) of the same substance?
Answer: The koff was 1.61e-05 s⁻¹.

Question: What about the kon (KMTR2) of the same substance?
Answer: The kon was 509000 M⁻¹ s⁻¹.
